Experimental data as given in patent publication US20240066131A1 (Protagonist Therapeutics, Inc., priority 2020, published 2024).

Biological target: T1, ferroportin (Homo sapiens, UniProt Q9NP59)
T1 sequence (Q9NP59 1-571): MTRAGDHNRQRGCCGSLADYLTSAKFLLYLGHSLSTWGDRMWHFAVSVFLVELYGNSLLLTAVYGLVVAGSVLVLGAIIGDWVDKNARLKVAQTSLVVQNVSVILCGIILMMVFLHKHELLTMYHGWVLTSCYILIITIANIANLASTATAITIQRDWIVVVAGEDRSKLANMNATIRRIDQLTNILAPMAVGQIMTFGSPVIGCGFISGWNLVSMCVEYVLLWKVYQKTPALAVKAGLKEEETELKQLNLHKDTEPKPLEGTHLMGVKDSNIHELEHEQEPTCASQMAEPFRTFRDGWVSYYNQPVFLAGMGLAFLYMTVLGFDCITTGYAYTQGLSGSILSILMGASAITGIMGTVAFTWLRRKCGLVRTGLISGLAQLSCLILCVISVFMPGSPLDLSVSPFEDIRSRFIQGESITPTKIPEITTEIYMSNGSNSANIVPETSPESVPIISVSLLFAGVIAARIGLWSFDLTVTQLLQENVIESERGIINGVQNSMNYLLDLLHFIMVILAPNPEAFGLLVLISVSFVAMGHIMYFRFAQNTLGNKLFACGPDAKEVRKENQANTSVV
Assay: FPN activity assay: internalization/degradation of ferroportin-GFP in stably transfected HEK293 cells (loss of GFP fluorescence)
Type: cell-based
Details: Table 6A; read-out: FPN EC50
Method: Following internalization, the ferroporin protein is degraded.
A retro inverse peptide is a peptide with a reversed sequence in all D amino acids. An example is that Hy-Glu-Thr-His-NH2 becomes Hy-DHis-DThr-DGlu-NH2. The EC50 of these reference compounds for ferroportin internalization/degradation was determined according to the FPN activity assay described above. These peptides served as control standards.

SMILES	DC50
CCCCCCCCCCCCCCCC(=O)NCCCCCC(=O)NCCCC[C@H](NC(=O)[C@@H]1CCCN1C(=O)[C@@H](NC(=O)[C@H](Cc1c[nH]cn1)NC(=O)[C@@H](NC(=O)[C@H](CCC(=O)O)NC(=O)CC(C)C)[C@@H](C)O)C(c1ccccc1)c1ccccc1)C(N)=O [compound 8]	452 nM
CC[C@H](C)[C@H](NC(=O)[C@H](C)NC(=O)[C@@H]1CCCN1C(=O)[C@@H](NC(=O)[C@H](Cc1c[nH]cn1)NC(=O)[C@@H](NC(=O)[C@H](CCC(=O)O)NC(=O)CC(C)C)[C@@H](C)O)C(c1ccccc1)c1ccccc1)C(=O)N[C@H](CCCCN)C(=O)N[C@H](CC(=O)N[C@@H](CCCCNC(C)=O)C(N)=O)Cc1ccccc1 [compound 10]	154 nM
CC[C@H](C)[C@H](NC(=O)[C@H](C)NC(=O)[C@@H]1CCCN1C(=O)[C@@H](NC(=O)[C@H](Cc1c[nH]cn1)NC(=O)[C@@H](NC(=O)[C@H](CCC(=O)O)NC(=O)CC(C)C)[C@@H](C)O)C(c1ccccc1)c1ccccc1)C(=O)N[C@@H](CCCCNC(=O)COCCOCCNC(=O)COCCOCCNC(=O)CCCCCNC(=O)CCCCCCCCCCCCCCCCC(=O)O)C(=O)N[C@H](CC(=O)N[C@H](CCCCN)C(N)=O)Cc1ccccc1 [compound 17]	20.3 nM
CCCCCCCCCCCCCCCC(=O)NCCCCCC(=O)NCCCC[C@H](NC(=O)C[C@H](Cc1ccccc1)NC(=O)[C@@H](CCCCN)NC(=O)[C@H](C)NC(=O)[C@H](C)NC(=O)[C@@H]1CCCN1C(=O)[C@@H](NC(=O)[C@H](Cc1c[nH]cn1)NC(=O)[C@@H](NC(=O)[C@H](CCC(=O)O)NC(=O)CC(C)C)[C@@H](C)O)C(c1ccccc1)c1ccccc1)C(=O)N[C@H](CCCCN)C(=O)N[C@@H](C)C(N)=O [compound 31]	108 nM
CCCCCCCCCCCCCCCC(=O)NCCCCCC(=O)NCCCC[C@H](NC(=O)C[C@H](Cc1ccccc1)NC(=O)[C@@H](CCCCN)NC(=O)[C@@H](NC(=O)[C@H](C)NC(=O)[C@@H]1CCCN1C(=O)[C@@H](NC(=O)[C@H](Cc1c[nH]cn1)NC(=O)[C@@H](NC(=O)[C@H](C)NC(=O)CC(C)C)[C@@H](C)O)C(c1ccccc1)c1ccccc1)[C@@H](C)CC)C(=O)N[C@H](CCCCN)C(=O)N[C@@H](C)C(N)=O [compound 32]	34 nM
CCCCCCCCCCCCCCCC(=O)NCCCCCC(=O)NCCCC[C@H](NC(=O)C[C@H](Cc1ccccc1)NC(=O)[C@H](CCCCN)N(C)C(=O)[C@@H](NC(=O)[C@H](C)NC(=O)[C@@H]1CCCN1C(=O)[C@@H](NC(=O)[C@H](Cc1c[nH]cn1)NC(=O)[C@@H](NC(=O)[C@H](Cc1nn[nH]n1)NC(=O)CC(C)C)[C@@H](C)O)C(c1ccccc1)c1ccccc1)[C@@H](C)CC)C(N)=O [compound 49]	33.2 nM
CCCCCCCCCCCCCCCC(=O)NCCCCCC(=O)NCCCC[C@H](NC(=O)C[C@H](Cc1ccccc1)NC(=O)[C@H]1CCCCNC(=O)CC[C@H](NC(=O)CC(C)C)C(=O)N[C@@H]([C@@H](C)O)C(=O)N[C@@H](Cc2c[nH]cn2)C(=O)N[C@@H](C(c2ccccc2)c2ccccc2)C(=O)N2CCC[C@H]2C(=O)N[C@@H](C)C(=O)N[C@@H]([C@@H](C)CC)C(=O)N1)C(=O)N[C@@H](CCCNC(=N)N)C(N)=O [compound 56]	11.4 nM
CCCCCCCCCCCCCCCC(=O)N[C@@H](CCC(=O)NCCOCCOCC(=O)NCCOCCOCC(=O)NCCCC[C@H](NC(=O)[C@@H](NC(=O)[C@H](C)NC(=O)[C@@H]1CCCN1C(=O)[C@@H](NC(=O)[C@H](Cc1c[nH]cn1)NC(=O)[C@@H](NC(=O)[C@H](CCC(=O)O)NC(=O)CC(C)C)[C@@H](C)O)C(c1ccccc1)c1ccccc1)[C@@H](C)CC)C(=O)N[C@H](CC(N)=O)Cc1ccccc1)C(=O)O [compound 102]	16.4 nM
CCCCCCCCCCCCCCCC(=O)NCCCCCC(=O)NCCCC[C@H](NC(=O)[C@@H](NC(=O)[C@H](C)NC(=O)[C@@H]1CCCN1C(=O)[C@@H](NC(=O)[C@H](Cc1c[nH]cn1)NC(=O)[C@@H](NC(=O)[C@H](CCC(=O)O)NC(=O)CC(C)C)[C@@H](C)O)C(c1ccccc1)c1ccccc1)[C@@H](C)CC)C(=O)N[C@H](CC(=O)N[C@H](CCCCN)C(N)=O)Cc1ccccc1 [compound 130]	48.9 nM

Other lines, results leading:

DC50	SMILES
108 nM	CCCCCCCCCCCCCCCC(=O)NCCCCCC(=O)NCCCC[C@H](NC(=O)[C@@H](NC(=O)[C@H](C)NC(=O)[C@@H]1CCCN1C(=O)[C@@H](NC(=O)[C@H](Cc1c[nH]cn1)NC(=O)[C@@H](NC(=O)[C@H](CCC(=O)O)NC(=O)CC(C)C)[C@@H](C)O)C(c1ccccc1)c1ccccc1)[C@@H](C)CC)C(=O)NCCc1ccccc1 [compound 51]
156 nM	CCCCCCCCCCCCCCCC(=O)NCCCCCC(=O)NCCCC[C@H](NC(=O)[C@@H](NC(=O)[C@@H]1CCCN1C(=O)[C@@H](NC(=O)[C@H](Cc1c[nH]cn1)NC(=O)[C@@H](NC(=O)[C@H](CCC(=O)O)NC(=O)CC(C)C)[C@@H](C)O)C(c1ccccc1)c1ccccc1)[C@@H](C)CC)C(=O)N[C@H](CC(N)=O)Cc1ccccc1 [compound 84]
13 nM	CCCCCCCCCCCCCCCC(=O)NCCCCCC(=O)NCCCC[C@H](NC(=O)CN(CCC(C)C)C(=O)[C@H](C)NC(=O)[C@@H]1CCCN1C(=O)[C@@H](NC(=O)[C@H](Cc1c[nH]cn1)NC(=O)[C@@H](NC(=O)[C@H](CCC(=O)O)NC(=O)CC(C)C)[C@@H](C)O)C(c1ccccc1)c1ccccc1)C(=O)N[C@H](CC(N)=O)Cc1ccccc1 [compound 91]
11.8 nM	CCCCCCCCCCCCCCCC(=O)NCCOCCOCC(=O)NCCCC[C@H](NC(=O)[C@@H](NC(=O)[C@H](C)NC(=O)[C@@H]1CCCN1C(=O)[C@@H](NC(=O)[C@H](Cc1c[nH]cn1)NC(=O)[C@@H](NC(=O)[C@H](CCC(=O)O)NC(=O)CC(C)C)[C@@H](C)O)C(c1ccccc1)c1ccccc1)[C@@H](C)CC)C(=O)N[C@H](CC(N)=O)Cc1ccccc1 [compound 94]
35.8 nM	CCCCCCCCCCCCCCCC(=O)NCCCCCC(=O)NCCCC[C@H](NC(=O)[C@@H](NC(=O)[C@@H]1CCCN1C(=O)[C@@H](NC(=O)[C@H](Cc1c[nH]cn1)NC(=O)[C@@H](NC(=O)[C@H](CCC(=O)O)NC(=O)CC(C)C)[C@@H](C)O)C(c1ccccc1)c1ccccc1)[C@@H](C)CC)C(=O)N[C@H](CC(N)=O)Cc1ccccc1 [compound 127]
